Measured values from patent publication US9023890B2, “Nitrate esters and their use for the treatment of muscle and muscle related diseases” (dated 2015).

Tested on: Myf-5, myogenin, follistatin
Assay: Western blotting of muscle protein expression after a single oral dose
Settings: 5-month old mice, oral 80 mg/kg body weight, back and quadriceps muscles, 24 hours, vs control

CCCC(C)(CO[N+](=O)[O-])CO[N+](=O)[O-]
increase: expression of Myf-5 | expression of follistatin | expression of myogenin
